The list shows a part of the results, in another mix than the full data. The source made the active and inactive calls.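 The calls were made as follows: active = inhibition of at least 30% at 20 µM; inactive = the rest.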

By UniProt entry, the sequences of proteins in these tests, tags left out. Residues count along the entry.
UniProt Q9GZU7, 76-261 limits assumed: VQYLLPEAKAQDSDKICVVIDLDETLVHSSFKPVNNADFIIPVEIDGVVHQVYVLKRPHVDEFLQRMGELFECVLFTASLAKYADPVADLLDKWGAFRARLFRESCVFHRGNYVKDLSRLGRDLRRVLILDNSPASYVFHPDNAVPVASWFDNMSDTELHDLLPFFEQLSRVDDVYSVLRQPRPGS

Data on 1 compound can be found in PubChem BioAssay AID540281 (Sanford-Burnham Center for Chemical Genomics, 2011).

The target in this assay is Carboxy-terminal domain RNA polymerase II polypeptide A small phosphatase 1 (Homo sapiens) (UniProt Q9GZU7). In words: SCP1 dephosphorylation blockade at one dose – biochemical, colorimetric, single concentration, confirmation (AID 540281).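 Also: plate controls were DMSO with enzyme for no effect and buffer wells lacking enzyme for full effect.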 Conditions: recombinant SCP-1 catalytic domain, phosphate release, malachite green absorbance; at 20 µM; active compounds read high. In outline:
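Assay system: SCP-1 catalytic fragment (residues 76-261). Schedule: 45 min enzyme reaction at room temperature. Medium: Tris acetate pH 5.5 buffer with Mg2+ and detergent. Compound: one dose, 20 µM final, 1.0% DMSO. Reagent: Phospho-17-mer peptide substrate. Detection: absorbance at 630 nm, free phosphate colorimetry.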
Take `O=C1C(O)=C([N+](=O)[O-])C(=O)C(O)=C1[N+](=O)[O-]`: the inhibition is active: 68.2%.

For orientation: inhibition means how much of the control response was suppressed.
